Experimental data: patent US20120135923A1, “Use of Melanocortins to Treat Dyslipidemia” (IPSEN PHARMA, S.A.S., priority 2009, published 2012)

By UniProt entry, the sequences of proteins in these tests, tags left out. Where a name states a change or a piece, a line headed by the entry shows the natural chain unless it says otherwise.
UniProt P32245, whole entry: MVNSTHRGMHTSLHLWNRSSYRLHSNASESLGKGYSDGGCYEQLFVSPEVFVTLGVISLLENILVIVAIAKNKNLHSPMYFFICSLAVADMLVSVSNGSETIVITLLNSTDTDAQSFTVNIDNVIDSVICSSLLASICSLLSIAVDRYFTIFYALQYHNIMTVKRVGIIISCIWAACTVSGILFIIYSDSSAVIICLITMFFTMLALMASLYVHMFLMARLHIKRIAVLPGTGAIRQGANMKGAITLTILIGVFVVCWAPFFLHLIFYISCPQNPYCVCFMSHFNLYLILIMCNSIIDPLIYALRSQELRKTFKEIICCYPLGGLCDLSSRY
UniProt P41968: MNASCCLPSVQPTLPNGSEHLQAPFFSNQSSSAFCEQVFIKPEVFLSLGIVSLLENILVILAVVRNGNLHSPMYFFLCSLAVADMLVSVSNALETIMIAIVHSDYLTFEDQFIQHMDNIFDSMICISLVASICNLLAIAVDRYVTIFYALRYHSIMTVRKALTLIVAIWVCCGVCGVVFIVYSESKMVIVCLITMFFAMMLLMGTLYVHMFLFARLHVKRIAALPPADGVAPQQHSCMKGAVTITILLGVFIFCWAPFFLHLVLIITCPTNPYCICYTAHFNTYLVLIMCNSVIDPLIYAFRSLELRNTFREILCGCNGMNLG
UniProt Q01726: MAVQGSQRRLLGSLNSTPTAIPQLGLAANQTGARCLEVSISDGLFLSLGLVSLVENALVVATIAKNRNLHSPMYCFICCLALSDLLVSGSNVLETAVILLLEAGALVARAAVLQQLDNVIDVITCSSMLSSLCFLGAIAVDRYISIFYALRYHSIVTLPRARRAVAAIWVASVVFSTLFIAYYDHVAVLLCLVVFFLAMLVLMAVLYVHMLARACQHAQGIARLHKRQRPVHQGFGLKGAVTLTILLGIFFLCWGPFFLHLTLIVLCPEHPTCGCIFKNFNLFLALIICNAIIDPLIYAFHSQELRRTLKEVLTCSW
UniProt P33032: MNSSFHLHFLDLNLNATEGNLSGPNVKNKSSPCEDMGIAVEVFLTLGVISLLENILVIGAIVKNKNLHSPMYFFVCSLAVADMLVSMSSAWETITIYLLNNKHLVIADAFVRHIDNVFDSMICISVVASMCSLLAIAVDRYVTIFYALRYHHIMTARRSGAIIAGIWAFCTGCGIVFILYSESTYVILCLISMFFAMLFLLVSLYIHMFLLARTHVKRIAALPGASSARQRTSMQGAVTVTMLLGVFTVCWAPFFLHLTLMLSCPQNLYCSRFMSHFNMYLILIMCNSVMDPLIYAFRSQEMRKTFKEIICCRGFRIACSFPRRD

Columns and labels:
hMC4-R (human) = hMC4-R (human) (UniProt P32245); test: competition with [125I]-NDP-α-MSH, CHO-K1 membranes
[1] = target: human melanocortin receptor subtype 4 (hMC4-R) (human) (UniProt P32245); test: [125I]-NDP-α-MSH competition, membranes
[2] = target: human melanocortin receptor subtype 3 (hMC3-R) (human) (UniProt P41968); test: [125I]-NDP-α-MSH competition, membranes
[3] = target: human melanocortin receptor subtype 1 (hMC1-R) (human) (UniProt Q01726); test: [125I]-NDP-α-MSH competition, membranes
[4] = target: human melanocortin receptor subtype 5 (hMC5-R) (human) (UniProt P33032); test: [125I]-NDP-α-MSH competition, membranes

Row | Substance | Ki (hMC4-R (human)) [nM] | Ki [1] [nM] | Ki [2] [nM] | Ki [3] [nM] | Ki [4] [nM]
1 | Ac-Nle-c(Cys-3-Pal-D-Phe-Arg-Trp-Gaba-Cys)-NH2 (peptide) | 10.4 | – | – | – | –
2 | c[Hydantoin(C(O)-(Cys-D-Ala))-His-D-Phe-Arg-Trp-Cys]-NH2 (peptide) | – | 126 | 7590 | 230 | 7020
